The assay deals with Scopolamine Induced Memory Deficit (mice). As to the kind of experiment: Dark Avoidance Assay (reversal of scopolamine induced memory deficit). It is filed as in vivo. To be noted: 0.3 mg/kg of body weight, s.c., retest at 24 hours.

This note sets out measurements from patent US5821239A (priority 1996, dated 1998).

As for `CN(C)C(=O)Oc1cnccc1N`, the “% of Animals with Scopolamine Induced Memory Deficit Reversal” value is 26.6%.

Consider `CCN(CC)C(=O)Oc1cnccc1N=CN(C)C`, for which the “% of Animals with Scopolamine Induced Memory Deficit Reversal” value was found to be 26.6%.
